Conditions: 10 and 100 ng/ml gel, protocols A and B
Description: Treatments (Protocols A and B): Mouse recombinant VEGF164 (the murine equivalent of human VEGF165) was dissolved at a concentration of 10 and 100 ng/ml gel. Control animals received applications of gel only. Some animals were injected on day 19 s.c. with 10 mg progesterone receptor antagonist RU486, a protocol which induces in 24 h preterm delivery in 80% of animals.

## VEGF
  fetal or placental weights among treatment for a given gestational age: no differences

— US6946442B2, “Method of hastening cervical ripening” (priority 1994, dated 2005)
